## Yeast mating assay 2: variants of the scFv Ab-91

The target is the same throughout: PDVDLGDISGINAS, from the HR2 region of SARS-CoV-2 spike.

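The parent was found by panning a naive human phage display library on the peptide. The library (AAYL51) carries one to three amino acid substitutions per variant, with no insertions or deletions. AlphaSeq pools MATa yeast showing the antibodies with MATalpha yeast showing the peptide. The frequency of each diploid, read from paired DNA barcodes, reflects how well the two displayed proteins bind. Read counts were normalised to the haploid input and turned into Kd by a linear fit to BCL2-family pairs of known affinity, for each replicate. The assay was run in three technical replicates.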

Ab-91 is the parent antibody, in scFv form: VL, then the linker GGGGSGGGGSGGGGS, then VH. The light chain is unchanged in all variants.
VL: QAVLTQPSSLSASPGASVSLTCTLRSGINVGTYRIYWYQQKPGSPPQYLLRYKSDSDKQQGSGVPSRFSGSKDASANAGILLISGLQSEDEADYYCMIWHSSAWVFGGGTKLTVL
VH: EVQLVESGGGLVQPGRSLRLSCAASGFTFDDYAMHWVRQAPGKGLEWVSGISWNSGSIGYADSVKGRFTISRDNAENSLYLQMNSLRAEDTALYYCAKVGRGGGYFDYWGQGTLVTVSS

Variants are written as CDR1, CDR2 and CDR3 of the heavy chain (limits as in the source). Parent: GFTFDDYAMH, GISWNSGSIGYADSVK, VGRGGGYFDY. The Kd shown is the geometric mean over detected replicates; a lower Kd is a better binder. "no signal" marks a missing value. The strain was present, yet no cells mated with the target were sequenced in any replicate, which points to weak or no binding. Background: pairings of library AAYL51 with three empty control strains gave a value in 21% of cases (median 34 µM, 5th percentile 1.8 µM). Values in that range, when seen in few replicates, are hard to tell from nonspecific mating. For each scFv, signals with the empty controls are counted beside the result. For reference, the parent read 72 nM as the reference entry and 7.5 nM as a member of this library.

| CDR-H1 | CDR-H2 | CDR-H3 | apparent Kd | replicates with signal | empty controls |
|---|---|---|---|---|---|
| GFTFDDGAMH | GISWNSGSIDYADIVK | VGRGGGYFDY | 160 µM | 1/3 | 3/9 |
| FHTFDDYAMH | GISWNSGSIGPADSVK | VGRGGGYFDY | 7.7 µM | 1/3 | 2/9 |
| GFTFDDYAMH | GISWNSGSIGYADSLK | VGRGSGYFDY | no signal | 0/3 | 2/9 |
| GLTEDDYAMH | GISWNSGSIKYADSVK | VGRGGGYFDY | 49 µM | 1/3 | 3/9 |
| GFTFDDYAMH | GCSWNYGSIGYADSVK | VGRGGGYFDY | 13 µM | 3/3 | 2/9 |
| GFTFVDYAMH | GISWNSGSIGYADSVK | VGMQGGYFDY | no signal | 0/3 | 0/9 |
| GFTFDDYAMH | GISWNIGSIGDADSVK | VGRGGWYFDY | no signal | 0/3 | 2/9 |
| GFTFDDYAKH | GISWRSGSIGYADSVS | VGRGGGYFDY | no signal | 0/3 | 2/9 |
| GFNFDDYAMH | GISWNSGSIMYADSVK | VGRGGGYFIY | 33 µM | 2/3 | 3/9 |
| GFTFVDGAMH | GISWNSGSIGYADSVK | VGRGGGYTDY | no signal | 0/3 | 0/9 |
| GFTFDDYAMG | GRSWNSGSIGYADSVK | VGRGGGYFDH | no signal | 0/3 | 2/9 |
| GFTFDDYAME | GISWNSDSIGYVDSVK | VGRGGGYFDY | 7.9 µM | 3/3 | 1/9 |
| GFRFDDYAMH | GISYNSGSIGYADSVK | VGRGGGYFDY | 8.1 nM | 3/3 | 6/9 |
| SFTFDDYAMH | GISWNSHSIGYIDSVK | VGRGGGYFDY | no signal | 0/3 | 0/9 |
| GFTFDDIAMH | GISWNEGSIGYHDSVK | VGRGGGYFDY | 290 µM | 1/3 | 2/9 |
| GFVFDDYAMH | GISWNSGSIGYADSVK | WGRGGGYFRY | no signal | 0/3 | 1/9 |
| GFTFADYAMH | GISWNSGSIGYADSVK | VMRLGGYFDY | 6.4 nM | 3/3 | 3/9 |
| GFTFDDYACH | GISWNSGSIGYADSVK | VKRGGGYFDY | no signal | 0/3 | 0/9 |
| GFHHDDYAMH | GISWNSGQIGYADSVK | VGRGGGYFDY | 19 µM | 2/3 | 1/9 |
| GFTFDDYHMH | GTSWNSNSIGYADSVK | VGRGGGYFDY | 120 µM | 3/3 | 3/9 |
| GFTFDDYAMH | GISWNSGSIGYAYSVD | VMRGGGYFDY | no signal | 0/3 | 0/9 |
| GFTFDAYAMH | GISWNSGSIGYTDSVG | VGRGGGYFDY | 40 nM | 3/3 | 2/9 |
| FFTFDDYAMH | GISWNSGSIGYADSEK | VGRGGGQFDY | no signal | 0/3 | 4/9 |
| GFTFDDYAMH | GISWNSGSIGYADSVK | VWRGGGVADY | no signal | 0/3 | 0/9 |
| GFTFDDYAMH | GISWNSLSIGRFDSVK | VGRGGGYFDY | no signal | 0/3 | 1/9 |
| GFTCDDYAMH | GISWNSGSIGYADSVK | VFRGGGYFDY | no signal | 0/3 | 0/9 |
| GFTFDDYAMH | GISWNSGSLGYADSVK | VGKVGGYFDY | 160 nM | 3/3 | 2/9 |
| GFTFDDYAMS | GISWNSGSIGYADSVR | VGRGGGYNDY | 98 µM | 2/3 | 5/9 |
| GFTFDWYAMH | GISWNSGEIGYADSVK | VGRGGGEFDY | 170 nM | 3/3 | 4/9 |
| GFGFDDYEMH | GISWNSGSIGYADSVK | VGRGGGYFDY | 1.0 µM | 1/3 | 0/9 |
| GFTSDDYAMH | GISWNSGQIGYADSVK | VQRGGGYFDY | 2.7 µM | 1/3 | 0/9 |
| GFTFDDYHMH | GISWNSPSNGYADSVK | VGRGGGYFDY | 30 µM | 1/3 | 0/9 |
| GFTFRDYAMH | GISCNSGSIGYADSVD | VGRGGGYFDY | 600 nM | 3/3 | 8/9 |
| GFTFDDYAMH | GISWNMGPIGYADSVA | VGRGGGYFDY | no signal | 0/3 | 0/9 |
| GFTFDDYAMH | GISWNEGSIGYADSVK | GGRGGGCFDY | 590 nM | 3/3 | 1/9 |
| GFTFDDYAMH | GISWNSVSIGYALSVK | VGRGGGYFDY | no signal | 0/3 | 1/9 |
| GFTFDDYAMH | GISWNSGSIGYARSVK | VHRHGGYFDY | no signal | 0/3 | 1/9 |
| IFTFDDYAMH | GISWNSGSIDYADSVK | VGRGQGYFDY | 34 µM | 1/3 | 0/9 |
| GFTFDDYAMH | GLSWNSGSIGYADSVK | VGRSGGYFDQ | no signal | 0/3 | 1/9 |
| GFTFDDDAMH | GISWNSGSITYADSVK | VGRGGGYFDC | 1.7 µM | 1/3 | 2/9 |
| GFTFDDYAMH | GISWNSGSQGYADSVK | ECRGGGYFDY | 10 µM | 2/3 | 5/9 |
| GFTFDDYAMH | LGSWNSGSIGYADSVK | VFRGGGYFDY | no signal | 0/3 | 1/9 |
| PFAFDDYAMH | GISWNSGSRGYADSVK | VGRGGGYFDY | no signal | 0/3 | 2/9 |
| GFTFVDYAMH | GISWNSGSIGYADSVK | VGRGGFYFDY | 30 nM | 3/3 | 1/9 |
| GFTFDDYAMH | GHSWNSGSFGYADSVK | VGKGGGYFDY | 37 µM | 3/3 | 2/9 |
| GFTFDDYAMH | GDSWKSGSIGYADSQK | VGRGGGYFDY | no signal | 0/3 | 0/9 |
| GFTFDDYAMH | GISWNSGSIGYDDSWK | VGRYGGYFDY | 130 µM | 2/3 | 5/9 |
| GFTFDDYAMH | RISWNWGSIGYADSVI | VGRGGGYFDY | no signal | 0/3 | 0/9 |
| GFTEDDYAMH | GISWNSGSHCYADSVK | VGRGGGYFDY | 42 µM | 2/3 | 1/9 |
| GFAFDDYAMH | GISWNSGSIGYADSVF | VGRGGVYFDY | no signal | 0/3 | 1/9 |
| GFTFDDYAMH | GISWNSGSIGYADAVP | VGREGGYFDY | 110 µM | 1/3 | 1/9 |
| RFTFDDYAMH | GISWNLGSIGYADSVK | TGRGGGYFDY | 660 µM | 1/3 | 3/9 |
| GFTFDDYAMH | GISWNSGSIGLSDSVK | VGRGGGYFDW | 260 µM | 3/3 | 7/9 |
| GFTFDDYAMH | GIKWNSISIGYADSVK | VGRAGGYFDY | no signal | 0/3 | 4/9 |
| GFTFDDYAMH | GISTNSGSSGYADSLK | VGRGGGYFDY | 19 nM | 3/3 | 0/9 |
| NFTFDDYAMH | GISWNSGSIGYAVSVK | VGRGGGYFDY | 27 µM | 2/3 | 4/9 |

The closing 5 entries, repeated:

| CDR-H1 | CDR-H2 | CDR-H3 | apparent Kd | replicates with signal | empty controls |
|---|---|---|---|---|---|
| RFTFDDYAMH | GISWNLGSIGYADSVK | TGRGGGYFDY | 660 µM | 1/3 | 3/9 |
| GFTFDDYAMH | GISWNSGSIGLSDSVK | VGRGGGYFDW | 260 µM | 3/3 | 7/9 |
| GFTFDDYAMH | GIKWNSISIGYADSVK | VGRAGGYFDY | no signal | 0/3 | 4/9 |
| GFTFDDYAMH | GISTNSGSSGYADSLK | VGRGGGYFDY | 19 nM | 3/3 | 0/9 |
| NFTFDDYAMH | GISWNSGSIGYAVSVK | VGRGGGYFDY | 27 µM | 2/3 | 4/9 |

Source: Engelhart et al. 2022 (doi:10.1038/s41597-022-01779-4), MIT Lincoln Laboratory and A-Alpha Bio; data file from the FLAb repository.